Experiment: Compatibility of absorption enhancers with trace elements: dissolution in aqueous medium, visual examination (Example 1)
Assay type: physicochemical
Method: Solid dry powder mixtures of desmopressin acetate, zinc sulfate or iron(III) chloride, and different absorption enhancers were prepared and dissolved in 2 ml aqua purificata.

Sucrose laurate
Dissolution in aqueous medium (2 ml) (desmopressin acetate + FeCl3 5 mg/ml + absorption enhancer 10 mg/ml in 2 ml aqua purificata): Clear solution
Dissolution in aqueous medium (2 ml) (desmopressin acetate + ZnSO4 5 mg/ml + absorption enhancer 10 mg/ml in 2 ml aqua purificata): Clear solution
